As a reminder, the inhibition is the share of the control response that was lost under treatment.

The chains behind the UniProt entries cited, without tags or fusion partners.
Huntingtin (Homo sapiens), P42858, UniProt P42858, whole entry, looked up, stated change not applied: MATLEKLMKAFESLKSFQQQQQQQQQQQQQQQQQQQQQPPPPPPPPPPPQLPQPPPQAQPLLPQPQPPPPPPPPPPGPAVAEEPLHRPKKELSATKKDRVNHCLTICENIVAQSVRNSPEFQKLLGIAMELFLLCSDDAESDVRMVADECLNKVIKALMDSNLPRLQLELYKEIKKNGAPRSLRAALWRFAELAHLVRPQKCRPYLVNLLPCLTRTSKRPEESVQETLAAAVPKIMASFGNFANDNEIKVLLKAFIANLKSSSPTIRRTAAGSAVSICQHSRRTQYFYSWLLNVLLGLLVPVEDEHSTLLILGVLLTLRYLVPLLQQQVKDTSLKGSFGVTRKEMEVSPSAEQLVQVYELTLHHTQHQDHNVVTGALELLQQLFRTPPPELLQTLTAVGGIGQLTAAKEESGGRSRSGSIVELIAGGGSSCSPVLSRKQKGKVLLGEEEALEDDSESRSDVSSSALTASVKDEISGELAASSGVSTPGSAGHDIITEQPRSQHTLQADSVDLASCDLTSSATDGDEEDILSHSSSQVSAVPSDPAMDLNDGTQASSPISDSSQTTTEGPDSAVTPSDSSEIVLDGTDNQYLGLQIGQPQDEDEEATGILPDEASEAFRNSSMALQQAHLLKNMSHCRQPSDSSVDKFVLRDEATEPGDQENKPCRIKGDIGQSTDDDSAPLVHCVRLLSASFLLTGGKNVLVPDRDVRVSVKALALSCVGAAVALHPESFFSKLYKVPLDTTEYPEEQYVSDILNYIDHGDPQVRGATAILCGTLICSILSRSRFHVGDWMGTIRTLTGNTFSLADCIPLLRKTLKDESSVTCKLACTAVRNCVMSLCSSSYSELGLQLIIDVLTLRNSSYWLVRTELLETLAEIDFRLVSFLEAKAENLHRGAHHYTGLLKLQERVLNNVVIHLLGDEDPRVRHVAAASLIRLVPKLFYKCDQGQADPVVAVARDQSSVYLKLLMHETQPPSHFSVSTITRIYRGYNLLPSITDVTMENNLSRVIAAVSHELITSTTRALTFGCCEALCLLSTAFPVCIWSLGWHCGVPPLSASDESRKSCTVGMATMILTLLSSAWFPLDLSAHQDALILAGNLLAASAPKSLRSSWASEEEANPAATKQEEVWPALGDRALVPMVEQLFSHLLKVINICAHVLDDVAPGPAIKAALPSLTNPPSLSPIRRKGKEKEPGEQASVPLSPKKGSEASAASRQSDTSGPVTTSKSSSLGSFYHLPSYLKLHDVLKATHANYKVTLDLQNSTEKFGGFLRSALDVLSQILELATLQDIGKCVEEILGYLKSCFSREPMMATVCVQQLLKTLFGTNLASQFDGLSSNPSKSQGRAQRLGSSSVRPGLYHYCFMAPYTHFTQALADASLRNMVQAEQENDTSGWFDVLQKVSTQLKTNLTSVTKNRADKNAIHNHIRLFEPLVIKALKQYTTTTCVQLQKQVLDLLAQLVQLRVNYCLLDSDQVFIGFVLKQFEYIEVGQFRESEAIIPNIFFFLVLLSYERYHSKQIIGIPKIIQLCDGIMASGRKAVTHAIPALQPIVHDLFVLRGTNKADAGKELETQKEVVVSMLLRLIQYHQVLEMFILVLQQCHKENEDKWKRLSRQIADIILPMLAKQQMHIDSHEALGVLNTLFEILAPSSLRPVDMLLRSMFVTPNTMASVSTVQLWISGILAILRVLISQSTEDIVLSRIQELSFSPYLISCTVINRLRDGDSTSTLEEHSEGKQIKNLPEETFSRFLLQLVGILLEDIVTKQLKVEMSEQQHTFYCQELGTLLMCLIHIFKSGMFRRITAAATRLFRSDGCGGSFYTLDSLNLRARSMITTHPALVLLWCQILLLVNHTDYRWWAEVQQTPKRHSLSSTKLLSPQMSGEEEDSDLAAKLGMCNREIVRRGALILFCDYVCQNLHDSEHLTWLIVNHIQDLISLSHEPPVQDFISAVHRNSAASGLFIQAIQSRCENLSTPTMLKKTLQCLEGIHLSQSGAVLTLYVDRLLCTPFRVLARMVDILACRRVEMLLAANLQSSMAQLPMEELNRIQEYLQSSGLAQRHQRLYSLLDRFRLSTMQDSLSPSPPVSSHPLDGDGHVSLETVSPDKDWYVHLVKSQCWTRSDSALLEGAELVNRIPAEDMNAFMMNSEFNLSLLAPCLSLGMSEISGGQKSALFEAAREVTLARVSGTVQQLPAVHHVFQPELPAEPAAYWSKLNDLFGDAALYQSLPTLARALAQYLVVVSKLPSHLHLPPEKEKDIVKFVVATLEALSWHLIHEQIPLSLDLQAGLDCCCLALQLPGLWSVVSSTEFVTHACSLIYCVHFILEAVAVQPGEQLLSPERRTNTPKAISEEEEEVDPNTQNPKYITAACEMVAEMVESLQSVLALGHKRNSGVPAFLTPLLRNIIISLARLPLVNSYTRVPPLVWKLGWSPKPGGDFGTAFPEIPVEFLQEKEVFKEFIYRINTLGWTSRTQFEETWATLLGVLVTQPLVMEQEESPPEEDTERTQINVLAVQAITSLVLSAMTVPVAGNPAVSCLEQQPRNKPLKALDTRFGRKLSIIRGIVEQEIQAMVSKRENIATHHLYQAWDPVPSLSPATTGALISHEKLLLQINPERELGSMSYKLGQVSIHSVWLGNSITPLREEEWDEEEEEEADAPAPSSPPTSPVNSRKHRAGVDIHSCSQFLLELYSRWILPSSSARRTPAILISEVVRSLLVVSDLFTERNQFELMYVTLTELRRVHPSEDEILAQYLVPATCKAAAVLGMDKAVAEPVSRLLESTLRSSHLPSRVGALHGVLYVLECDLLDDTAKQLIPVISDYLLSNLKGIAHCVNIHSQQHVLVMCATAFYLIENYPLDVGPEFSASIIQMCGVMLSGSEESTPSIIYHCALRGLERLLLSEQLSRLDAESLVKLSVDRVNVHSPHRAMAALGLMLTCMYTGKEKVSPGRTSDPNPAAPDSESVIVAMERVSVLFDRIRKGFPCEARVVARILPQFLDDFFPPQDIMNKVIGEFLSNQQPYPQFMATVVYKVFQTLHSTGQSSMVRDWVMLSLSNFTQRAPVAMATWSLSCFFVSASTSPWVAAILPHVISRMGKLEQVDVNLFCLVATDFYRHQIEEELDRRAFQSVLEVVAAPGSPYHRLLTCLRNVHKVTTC

The assay deals with Huntingtin (Homo sapiens), P42858 [UNDEFINED MUTATION]. To be noted: dose 10.0 nM.

`Cc1cc2c(C(C)C)c(O)c(O)c(C=O)c2c(O)c1-c1c(C)cc2c(C(C)C)c(O)c(O)c(C=O)c2c1O` registered an inhibition of 24%.

The values above are taken from ChEMBL document CHEMBL5223149, “The Emerging Landscape of Small-Molecule Therapeutics for the Treatment of Huntington's Disease” (J Med Chem, 2022).
